These are literature values, as cited in publication PMC3583342 (Clinical pharmacology and therapeutics, 2008).

The conditions of the series: cited from earlier work.

Consider `CCC(=O)C(CC(C)N(C)C)(c1ccccc1)c1ccccc1` (stereo not shown) [methadone], for which the “decrease in oral racemic methadone plasma Cmax and AUC by ritonavir” value was 36-38%.
